# Apparent affinities of Ab-14 variants for a coronavirus HR2 peptide

The target is the same throughout: PDVDLGDISGINAS, from the HR2 region of SARS-CoV-2 spike.

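Phage display of a naive human antibody library on the peptide gave the parent. Library AAYL49 holds single substitutions and randomly drawn double and triple substitutions in the CDRs. The assay is AlphaSeq: two haploid yeast populations carry antibody and antigen on their surface. Mating (16 h, 30 °C) was followed by selection of diploids and sequencing of their barcodes. Each replicate has its own calibration line, from reference interactions of the BCL2 family. There are three technical replicates.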

The variants keep the light chain, the linker and the frameworks of Ab-14 (scFv order VH, three GGGGS repeats, VL).
VH: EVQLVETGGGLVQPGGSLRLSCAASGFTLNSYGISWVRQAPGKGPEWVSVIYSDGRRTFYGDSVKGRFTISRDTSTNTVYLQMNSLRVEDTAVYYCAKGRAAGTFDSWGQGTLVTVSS
VL: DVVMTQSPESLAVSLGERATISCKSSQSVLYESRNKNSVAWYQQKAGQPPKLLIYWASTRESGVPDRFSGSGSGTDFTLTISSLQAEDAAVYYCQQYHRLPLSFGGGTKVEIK

Each variant is given by its three heavy chain CDRs, as the data file delimits them; those of the parent are GFTLNSYGIS, VIYSDGRRTFYGDSVK, GRAAGTFDS.
Scale: log10 of Kd in nM, estimated from mating counts; low values are strong binders.
An entry "nd" has no value in the source: the pair was not observed among the diploids in that replicate. This suggests poor binding but is not conclusive.
Parent in this assay: reference entry 0.65, copy in this library 4.11 (one replicate of three).
Nonspecific signal, from three strains lacking the peptide, appeared in 15% of pairings of library AAYL49, centred on 4.06 (5% of these signals below 2.83); values are not corrected for it. For each scFv, signals with the empty controls are counted beside the result, with their mean in brackets.

| # | CDR-H1 | CDR-H2 | CDR-H3 | log10 Kd, replicates | signal with controls |
|---|---|---|---|---|---|
| 1 | GMTLNSYGIS | VQYSDGRRTFYGDSVK | GRAAGTFDS | nd nd nd | 0 of 9 |
| 2 | GFIINKYGIS | VIYSDGRRTFYGDSVK | GRAAGTFDS | 2.31 2.04 2.56 | 0 of 9 |
| 3 | GFTLNSYGIS | LIYSDGRRTQYGDSAK | GRAAGTFDS | nd nd nd | 0 of 9 |
| 4 | GFTLNSYGNS | VIYSDGRRTFYGDSVK | GRAAGWFDS | nd nd nd | 0 of 9 |
| 5 | GFTLNSYGID | VIYSDGRRTFYGDSVK | GRAGGEFDS | nd 3.73 nd | 0 of 9 |
| 6 | GGTLNSYGIS | VIYSDERRTFYGDSVK | GRAAGTNDS | nd nd nd | 1 of 9 (4.34) |
| 7 | GLTLNSYGIS | VIYSDGRRCPYGDSVK | GRAAGTFDS | nd nd nd | 0 of 9 |
| 8 | GRTLRSYGIS | VIYSDGRRTFYGDSVK | GRAAGTFDS | nd 4.44 3.49 | 0 of 9 |
| 9 | GFTLNSYGIS | VKYSDDRRTNYGDSVK | GRAAGTFDS | 3.71 4.54 nd | 1 of 9 (3.49) |
| 10 | GFTLNSYGIS | VIYSFGRRTMYGDSVK | YRAAGTFDS | 2.99 nd 4.71 | 0 of 9 |
| 11 | QFTLNSYGIS | VIYSDLRRHFYGDSVK | GRAAGTFDS | nd nd nd | 0 of 9 |
| 12 | GFTLNSYGIS | VGYSDGRRTFNGDSVK | GKAAGTFDS | nd 2.69 3.80 | 5 of 9 (4.38) |
| 13 | GFTLNSYLIS | VIYSDGRRTFYGMSVK | GRAAGTADS | nd nd nd | 2 of 9 (5.40) |
| 14 | GFTLNSYGIS | VIYSDGLRTFYGDSVA | GQAAGTFDS | 0.71 0.96 0.90 | 1 of 9 (3.55) |
| 15 | GFTGNSYGIS | VIYSDGRRTFYGDSTK | GRAAGTFDA | nd 3.33 nd | 6 of 9 (4.58) |
| 16 | GFTLNSYGIS | VIYSDGRRTFYGDSVK | GRASGKFDS | nd nd nd | 0 of 9 |
| 17 | GFTLNSYGIS | VIYSDGRLTFYGDSVQ | GRAAGTFPS | nd 3.19 5.03 | 2 of 9 (4.05) |
| 18 | GFTLNSYGEF | VIYSDGRRTFYGDSVK | GRAAGTFDS | nd nd nd | 1 of 9 (3.09) |
| 19 | GFTLISYGIS | VIYSDGRRTFYGDSVK | GPAAPTFDS | nd nd nd | 0 of 9 |
| 20 | GFTLNSYGMS | VIYSDGRRPFYGMSVK | GRAAGTFDS | nd 3.46 nd | 0 of 9 |
| 21 | GVTLNSMNIS | VIYSDGRRTFYGDSVK | GRAAGTFDS | nd nd nd | 0 of 9 |
| 22 | GFTLNSYAIS | VIKSLGRRTFYGDSVK | GRAAGTFDS | nd 3.94 4.67 | 3 of 9 (4.05) |
| 23 | GFTLNSYGIS | VIYSDGRRTFYGDSVT | GRWAGTFSS | nd nd nd | 2 of 9 (3.52) |
| 24 | GFTLNSYGIS | VIYSDGRRTFYGDDVK | GRAANTFKS | 1.95 2.47 3.93 | 1 of 9 (2.09) |
| 25 | GHTLNSYGIS | VIYSCGRFTFYGDSVK | GRAAGTFDS | nd nd nd | 1 of 9 (4.29) |
| 26 | GFTLNSEGIS | VIYSDGRRTFYGDSRK | GRAQGTFDS | nd 5.39 nd | 2 of 9 (3.70) |
| 27 | GFTDNSYGIG | VIYSDGRRTFYCDSVK | GRAAGTFDS | 3.68 nd nd | 0 of 9 |
| 28 | GFTLNSYGVS | VIYSWGRRTFYNDSVK | GRAAGTFDS | 4.97 5.31 5.63 | 7 of 9 (3.89) |
| 29 | GFTLNSYGIS | NIISDGRRTFTGDSVK | GRAAGTFDS | nd nd nd | 0 of 9 |
| 30 | GFCLNSYGDS | VIYSDGRHTFYGDSVK | GRAAGTFDS | nd nd nd | 0 of 9 |
| 31 | HFTLNSYGII | VIYSDARRTFYGDSVK | GRAAGTFDS | nd nd nd | 2 of 9 (4.17) |
| 32 | GFTLGSYGIS | KIYSDGRRTFYGDSVK | QRAAGTFDS | nd 3.85 5.63 | 0 of 9 |
| 33 | GFTLNSYGIS | VIYSDGRRTFYGASVK | GRWAGTFKS | nd nd nd | 0 of 9 |
| 34 | GFTLNPYGIS | VIYSDGRRTFYGDSVK | GRAAGTFDA | 5.51 nd nd | 0 of 9 |
| 35 | GFTLNSYGIS | HIYSDGRITFYGDSVK | GRAARTFDS | nd 4.26 nd | 1 of 9 (2.59) |
| 36 | GFTLNSYGIS | LIYSDKRRTFYGDSVK | WRAAGTFDS | nd nd 3.87 | 2 of 9 (4.33) |
| 37 | GFTLNSYGIS | VNYSDGRRTFHGDSSK | GRAAGTFDS | nd nd nd | 0 of 9 |
| 38 | GFTLNSYGIQ | VLYSDGRRTFYGDSVK | GRAAGTFDS | nd nd nd | 1 of 9 (2.77) |
| 39 | GFTLNSYGIS | VIYSDARRTFYGDSVK | GRSAGTFRS | nd nd nd | 1 of 9 (4.00) |
| 40 | GFTLSSYGIS | VIYSDGRRTFYGDRVK | GRAAGNFDS | 2.24 2.08 2.35 | 4 of 9 (4.38) |
| 41 | GFTLNCYSIS | VIYSDGRRTFHGDSVK | GRAAGTFDS | nd nd nd | 1 of 9 (2.17) |
| 42 | GFQLNSYGIS | VIYSDGRRDRYGDSVK | GRAAGTFDS | nd nd nd | 0 of 9 |
| 43 | GFTLNLYGIS | VIYSDGRRTFKGDSVK | GRALGTFDS | nd nd nd | 0 of 9 |

From the AlphaSeq antibody data of Engelhart et al. 2022 (doi:10.1038/s41597-022-01779-4), copy in the FLAb collection.